The text below walks through data of patent publication US20050234026A1, “Method and agent for inducing apoptosis/cell death in leukemia cells” (priority 2003, published 2005).

For one test, the target named is pure human enzyme NOS2 (Homo sapiens, UniProt P35228). Kind of test: Kd for enzyme inhibition, pure human NOS2. It counts as biochemical.
The test system of another test is CLL cells. Briefly: Cytotoxicity of NOS inhibitors and NO quenchers/scavengers for freshly-isolated CLL cells in vitro. To be noted: Table 2, CLL cytotoxicity. It counts as cell-based, human.

By Kd is commonly meant the constant that tells how readily two partners part at equilibrium.

Regarding `Cc1cccc(N)n1` [2-amino-6-methyl pyridine], the Kd at pure human enzyme NOS2 came to 0.26 µM.

In the case of `CC(=N)NCc1cccc(CN)c1` [1400W, N-(3-(aminomethyl)benzyl)acetamidine], the “ED50 for CLL” value with CLL cells is over 2000 µM.
